Results reported in patent US7365162B2, “Stabilized bioactive peptides and methods of identification, synthesis, and use” (priority 1998, dated 2008).

Format: in vivo, Sprague-Dawley rats
Details: rat, intravenous bolus, plasma
Description: A catheter was placed in the right jugular vein of six Male Sprague-Dawley rats for dosing and sampling. Two rats were used for each of the three compounds that were tested. The rats received an intravenous bolus injection of the peptide, and serial blood samples (0.3 ml) were obtained.

In the case of `CSCC[C@H](NC(=O)[C@H](CC(C)C)NC(=O)[C@H](Cc1c[nH]c2ccccc12)NC(=O)[C@H](CCC(N)=O)NC(=O)[C@@H](NC(=O)[C@H](Cc1ccccc1)NC(=O)[C@H](CC(=O)O)NC(=O)[C@H](CCC(N)=O)NC(=O)[C@H](C)NC(=O)[C@H](CCCN=C(N)N)NC(=O)[C@H](CCCN=C(N)N)NC(=O)[C@H](CO)NC(=O)[C@H](CC(=O)O)NC(=O)[C@H](CC(C)C)NC(=O)[C@H](Cc1ccc(O)cc1)NC(=O)[C@H](CCCCN)NC(=O)[C@H](CO)NC(=O)[C@H](Cc1ccc(O)cc1)NC(=O)[C@H](CC(=O)O)NC(=O)[C@H](CO)NC(=O)[C@@H](NC(=O)[C@H](Cc1ccccc1)NC(=O)[C@@H](NC(=O)CNC(=O)[C@H](CCC(N)=O)NC(=O)[C@H](CO)NC(=O)[C@@H](N)Cc1c[nH]cn1)[C@@H](C)O)[C@@H](C)O)C(C)C)C(=O)N[C@@H](CC(N)=O)C(=O)N[C@H](C(=O)O)[C@@H](C)O` [Glucagon], the “Percent remaining after 20 minutes” value (20 minutes) is reported as 0.2% and the “Percent remaining after 60 minutes” value (60 minutes) is reported as 0.0%.
